Results taken from publication PMC4980677.

Molecular target: SAMHD1_(115-626) WT (HD domain construct of human SAMHD1) (human) (UniProt Q9Y3Z3)

SAMHD1_(115-626) WT (HD domain construct of human SAMHD1) (from UniProt Q9Y3Z3 115-626) (domain or fragment)
rate of dTTP hydrolysis (NMR-based dNTPase assay, 1 mM dTTP, 1 μM SAMHD1) against GTP concentration, from no GTP to above 20 μM; apparent half-rise at 1.5 μM GTP: > 1 s⁻¹
